The values that follow are results of earlier work, collected in patent publication US20200352901A1, “TETRAHYDRO[…]” (priority 2017, published 2020).

By UniProt entry, the sequences of proteins in these tests, tags left out.
UniProt P21554, whole entry, species assumed: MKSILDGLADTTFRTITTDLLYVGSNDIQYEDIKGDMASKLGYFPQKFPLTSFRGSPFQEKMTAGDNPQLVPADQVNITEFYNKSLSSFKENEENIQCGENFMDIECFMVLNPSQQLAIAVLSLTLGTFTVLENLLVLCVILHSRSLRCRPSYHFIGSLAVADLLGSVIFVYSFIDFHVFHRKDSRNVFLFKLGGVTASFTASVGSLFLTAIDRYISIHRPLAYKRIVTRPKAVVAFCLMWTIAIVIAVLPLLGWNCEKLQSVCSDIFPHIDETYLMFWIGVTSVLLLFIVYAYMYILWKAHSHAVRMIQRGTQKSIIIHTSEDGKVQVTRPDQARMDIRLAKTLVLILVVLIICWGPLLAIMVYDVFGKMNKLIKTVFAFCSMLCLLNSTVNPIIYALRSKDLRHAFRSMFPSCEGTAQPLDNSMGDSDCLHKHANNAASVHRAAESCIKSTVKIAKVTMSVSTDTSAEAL

This data set has as its target CB1 (Homo sapiens, UniProt P21554).

Molecules are shown by their SMILES.

With `CCCCCc1cc(O)c2c(c1)OC(C)(C)C1CC=C(C)CC21` (stereo not shown) [delta-8-THC, delta-8-tetrahydrocannabinol], the “Functional character at CB1” value is recorded as “agonists”.
